# Measured affinities in a library of Ab-14 light chain variants

Data: MIT Lincoln Laboratory AlphaSeq set, Li et al. 2023, doi:10.1038/s41467-023-39022-2, as distributed in FLAb.

The target is the same throughout: PDVDLGDISGINAS, from the HR2 region of SARS-CoV-2 spike.

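The parent was found by panning a naive human phage display library on the peptide. Designed CDR sequences, proposed from the first random library and measured here. Group labels follow the data file (Ctrl: baseline library sampled from a position-specific scoring matrix, with some repeated check sequences; Rand: our label for a block that the file lists under HC and that is probably the random mutants of the ten best first-round binders; GP: Gaussian process model; GPLM: also part of the Gaussian process libraries; HC: hill climbing; Gen: genetic algorithm; Gibbs: Gibbs sampling; a sequence that several methods proposed may carry one label only). The scFvs were displayed on barcoded MATa yeast, the peptide on MATalpha yeast. The frequency of each diploid, read from paired DNA barcodes, reflects how well the two displayed proteins bind. A regression on co-assayed BCL2-family reference pairs converts the normalised counts of each replicate to an apparent Kd. There are six technical replicates.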

Each scFv is VH, three GGGGS repeats, VL, as in the parent Ab-14, and differs from it in the CDRs of the light chain only.
VH: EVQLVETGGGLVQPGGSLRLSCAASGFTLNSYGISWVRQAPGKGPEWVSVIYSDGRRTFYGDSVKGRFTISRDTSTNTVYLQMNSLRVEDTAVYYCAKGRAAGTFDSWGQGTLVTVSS
VL: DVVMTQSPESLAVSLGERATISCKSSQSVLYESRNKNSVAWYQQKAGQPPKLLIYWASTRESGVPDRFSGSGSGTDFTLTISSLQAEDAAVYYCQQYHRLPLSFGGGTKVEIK

Changes read parent residue, position, new residue, counted from the first residue of the VL shown.
This list holds designs with at most six substitutions.
The Kd shown is the geometric mean over detected replicates; a lower Kd is a better binder.
An entry "no signal" has no value in the source: the pair was not observed among the diploids in any replicate. This suggests poor binding but is not conclusive.
Of ten entries with the parent sequence, four were seen in most replicates (averages 2.2 nM to 240 nM), three in one and three in none, so single entries are noisy.

| changes | group | Kd (apparent) | detected |
|---|---|---|---|
| Y31M K36S W56D | GP_HC | 1.2 nM | 6 of 6 |
| S26Y Q27I V29A W56Q S103T | Ctrl | 14 nM | 6 of 6 |
| R34C W56A Q95F | Ctrl | no signal | 0 of 6 |
| V29C S58M H98D | Ctrl | no signal | 0 of 6 |
| R34W W56E | Ctrl | 200 nM | 6 of 6 |
| V29C W56R | Ctrl | 44 nM | 6 of 6 |
| K24D V29H S33G W56K | Ctrl | 16 nM | 6 of 6 |
| K24L V29D W56N S103M | Ctrl | 2.3 nM | 6 of 6 |
| S25L S26Q V29W N35M W56N T59Q | GP_Gen | 1.4 nM | 6 of 6 |
| V29S L30A V39H W56H L102C | Ctrl | no signal | 0 of 6 |
| S25L Q27G V29Q W56N E61L | GP_Gen | 570 pM | 6 of 6 |
| S25L V29H W56Q Q96D | GP_Gen | 830 pM | 6 of 6 |
| S25M S33G N35T W56N | GP_HC | 2.1 nM | 6 of 6 |
| K24H Q27E W56D | GP_HC | 1.7 nM | 6 of 6 |
| S25L L30D W56H | GP_Gen | 840 pM | 6 of 6 |
| Q27F V29Y R34E W56E T59Q | GP_HC | 1.2 nM | 6 of 6 |
| R34Q S38I W56E | Ctrl | 54 nM | 2 of 6 |
| K24H S25Q Q27P W56N A57G | GP_HC | 22 nM | 6 of 6 |
| S25V R34P W56A H98E | Ctrl | 2.1 nM | 6 of 6 |
| Y31E W56N | Ctrl | 2.7 nM | 6 of 6 |
| S25L V29N W56N S62Q | GP_Gen | 310 pM | 6 of 6 |
| S25C L30D Y31F W56D | GP_HC | 550 pM | 6 of 6 |
| S25V S26D S28D V29D S33N W56Q | GP_Gibbs | 470 pM | 6 of 6 |
| Q27G V29E W56E | GP_Gen | 720 pM | 6 of 6 |
| S25L V29N W56N S62E | GP_Gen | 1.6 nM | 6 of 6 |
| S25L V29M L30E W56H S62Q S103M | GP_Gibbs | 540 pM | 6 of 6 |
| S25L V29E S38A W56E | GP_Gen | 700 pM | 6 of 6 |
| S25L V29E L30D W56N E61M | GP_Gen | 930 pM | 6 of 6 |
| W56E Q96T H98D | Ctrl | 3.7 nM | 6 of 6 |
| Y97S | Ctrl | 390 nM | 3 of 6 |
| R34S S58Q | Ctrl | 1.3 nM | 1 of 6 |
| S25L S26Y V29Q W56Q T59H S62M | GP_Gibbs | 5.3 nM | 6 of 6 |
| Y31E N37Q V39L W56D R60L S103K | Ctrl | 3.1 nM | 6 of 6 |
| S25L L30D W56D E61M | GP_Gen | 500 pM | 6 of 6 |
| L30W Y31M | Ctrl | 16 nM | 6 of 6 |
| E32G K36A | Ctrl | 150 nM | 3 of 6 |
| S25L V29E L30D W56E | GP_Gen | 2.4 nM | 6 of 6 |
| S25L V29E L30P W56N E61L | GP_Gen | 800 pM | 6 of 6 |
| S25F L30C Y31K W56Q | Ctrl | 2.0 nM | 6 of 6 |
| S25V S33H L100P S103H | Ctrl | 22 µM | 1 of 6 |
| S25L S28L V29W W56Q | GP_Gen | 2.3 nM | 6 of 6 |
| S25F S26G Q27P S28M W56G A57W | Rand | no signal | 0 of 6 |
| S25L S26E W56N | GP_Gen | 580 pM | 6 of 6 |
| S25L S26P L30C W56N | GP_Gen | 300 pM | 6 of 6 |
| V29W W56G T59K | GP_HC | 1.0 nM | 6 of 6 |
| S25C Y31G S33Q W56D | GP_HC | 560 pM | 6 of 6 |
| K24W S25I N35D W56N E61L | GP_Gibbs | 1.9 nM | 6 of 6 |
| S25V S28W N35T W56N T59Q | GP_HC | 1.6 nM | 6 of 6 |
| S26G S28G V29W W56G T59Q | GP_HC | 470 pM | 6 of 6 |
| V29S Y31D W56M H98S | Ctrl | 900 pM | 6 of 6 |
| S25L N35D W56H S62D | GP_HC | 530 pM | 6 of 6 |
| S25Q K36Q | Ctrl | 45 nM | 6 of 6 |
| K24M Y31E K36A N37S | Ctrl | no signal | 0 of 6 |
| S25C L30D N35Q W56N E61L | GP_Gibbs | 3.5 nM | 6 of 6 |
| Y31P S62Y H98L | Ctrl | 3.1 nM | 6 of 6 |
| S25L V29E L30P W56N T59Q | GP_Gen | 770 pM | 6 of 6 |
| S25L S26E Q27Y V29W W56N T59Q | GP_Gen | 3.2 nM | 6 of 6 |
| S25N L30P N37V W56R | Ctrl | 84 nM | 6 of 6 |
| V29H W56D | GP_HC | 500 nM | 4 of 6 |
| K24Q V29F W56E | GP_HC | 840 pM | 6 of 6 |
| S33R W56N T59E E61A Y97K | Ctrl | no signal | 0 of 6 |
| K24R S26M S62P Q95D | Ctrl | 54 nM | 1 of 6 |
| S25L W56N S103E | GP_Gen | 710 pM | 6 of 6 |
| S25V S33Q W56S | GP_Gen | 2.1 nM | 6 of 6 |
| S26L Y31E W56H S62D R99V | GP_HC | 3.2 nM | 6 of 6 |
| Q27I V29W Y31E W56E | GP_HC | 290 pM | 6 of 6 |
| S25C L30I S62A L102F | Ctrl | 14 nM | 3 of 6 |
| S25L Q27G V29E W56G | GP_Gen | 390 pM | 6 of 6 |
| V29F N35W W56G T59Q | GP_HC | 5.4 nM | 6 of 6 |
| R34E K36T E61V L100Q | Ctrl | 310 nM | 2 of 6 |
| S26G S28G W56G E61W | GPLM_HC | 1.0 nM | 6 of 6 |
| S25L W56N T59Q E61L Q96D | GP_Gen | 1.0 nM | 6 of 6 |
| Q27N K36T W56D Q96L | Ctrl | 11 nM | 6 of 6 |
| S25V S26L L30V S33G W56N S62D | GP_HC | 1.1 nM | 6 of 6 |
| S25I Y31M H98Q | Ctrl | 3.3 nM | 6 of 6 |
| S25L S26Q S38N W56A | GP_Gen | 1.1 nM | 6 of 6 |
| S25L S26Y V29N W56N T59Q | GP_Gen | 1.3 nM | 6 of 6 |

The first 6 variants above that were never detected:

| changes | group | Kd (apparent) | detected |
|---|---|---|---|
| R34C W56A Q95F | Ctrl | no signal | 0 of 6 |
| V29C S58M H98D | Ctrl | no signal | 0 of 6 |
| V29S L30A V39H W56H L102C | Ctrl | no signal | 0 of 6 |
| S25F S26G Q27P S28M W56G A57W | Rand | no signal | 0 of 6 |
| K24M Y31E K36A N37S | Ctrl | no signal | 0 of 6 |
| S33R W56N T59E E61A Y97K | Ctrl | no signal | 0 of 6 |

The authors' rule: three or more of the six replicates give a measured affinity, fewer mean a poor binder.
Empty control strains, which show no peptide, gave a signal in 4% of pairings with all light chain designs; the median was 430 nM and 95% of these signals were weaker than 38 nM. No background was subtracted.
Values of this round are not directly comparable with the first-round values of the same sequences.